Type: in vivo, human
Settings: substrate + enzalutamide 160 mg/day vs substrate + placebo-to-match; n = 14

## CC(=O)C[C@H](c1ccccc1)c1c(O)c2ccccc2oc1=O [R-warfarin]
  AUC∞ geometric mean ratio test/reference (90 % CI): 0.55 (0.51–0.58)
  C max geometric mean ratio test/reference (90 % CI): 0.99 (0.93–1.05)

## CC(=O)C[C@@H](c1ccccc1)c1c(O)c2ccccc2oc1=O [S-warfarin]
  AUC∞ geometric mean ratio test/reference (90 % CI): 0.44 (0.41–0.48)
  C max geometric mean ratio test/reference (90 % CI): 0.93 (0.86–0.99)
